According to PubChem BioAssay AID2521 (Sanford-Burnham Center for Chemical Genomics, 2010):
The entries are a selection whose mix differs from that of the whole data set. Some salts or complexes appear as unconnected parts, following the source record. The source made the active and inactive calls.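 How the source made its calls: active means inhibition above about 40% at 20 µM (limit read from the data); inactive means the rest.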

By UniProt entry, the sequences of proteins in these tests, tags left out.
UniProt P35414, whole entry: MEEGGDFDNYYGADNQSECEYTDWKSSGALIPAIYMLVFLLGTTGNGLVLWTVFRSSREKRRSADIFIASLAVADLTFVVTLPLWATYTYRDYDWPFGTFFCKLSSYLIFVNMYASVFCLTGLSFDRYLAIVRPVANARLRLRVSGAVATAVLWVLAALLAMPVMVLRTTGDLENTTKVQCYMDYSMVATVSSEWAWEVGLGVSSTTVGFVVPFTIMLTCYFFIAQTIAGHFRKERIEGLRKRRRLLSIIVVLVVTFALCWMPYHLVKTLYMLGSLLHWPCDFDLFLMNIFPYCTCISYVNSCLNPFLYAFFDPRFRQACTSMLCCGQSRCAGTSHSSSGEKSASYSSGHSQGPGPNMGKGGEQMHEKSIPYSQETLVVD

These molecules were tested against Apelin receptor (Homo sapiens) (UniProt P35414) (assay: blockade of apelin-induced APJ beta-arrestin recruitment – CHO-K1 cells, beta-arrestin complementation, luminescence, primary screen (AID 2521;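 further: cells challenged with 10 nM apelin-13 agonist together with compound; plate controls were apelin-13 plus DMSO wells for no effect and DMSO wells lacking apelin-13 for full effect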)). Settings: at 20 µM, stronger effect = higher value.

SMILES | inhibition
O=[N+]([O-])c1cc([N+](=O)[O-])c(Nc2cccnc2)c([N+](=O)[O-])c1 | inactive: -0.368%
Cc1cccc(C)c1OP(C)(N)=O (configuration not stated) | inactive: -3.53%
CC(C)(C)c1ccc(OP(C)(=O)Nc2ccc(SC(F)(F)F)cc2)cc1 (configuration not stated) | inactive: -18.1%
CCOC(=O)c1ccc(NP(C)(=O)Oc2ccccc2)cc1 (configuration not stated) | inactive: 7.97%
Cc1ccc(NP(C)(=O)Oc2ccccc2)c(C)c1 (configuration not stated) | inactive: 16.3%
COc1ccccc1OP(C)(=O)Nc1ccc(C)cc1 (configuration not stated) | inactive: 5%
COc1ccc(OP(C)(=O)Nc2cccc(F)c2)cc1 (configuration not stated) | inactive: 8.35%
COc1ccccc1OP(C)(=O)Nc1cc(Cl)ccc1C (configuration not stated) | inactive: -1.66%
Cc1cc(C)cc(OP(C)(N)=O)c1 (configuration not stated) | inactive: 9.31%
CCN(CC)CCCOC(=O)C(O)(c1ccccc1)c1ccccc1 | inactive: -1.18%
CP(=O)(Oc1ccccc1)OC(c1ccccc1)C(F)(F)F (configuration not stated) | inactive: -1.91%
Cc1cccc(C)c1OP(C)(=O)Nc1ccc(SC(F)(F)F)cc1 (configuration not stated) | inactive: 0.803%
CP(=O)(Nc1ccc(SC(F)(F)F)cc1)Oc1ccc(Cl)cc1 (configuration not stated) | inactive: -2.11%
Cc1cc(C)cc(OP(C)(=O)Nc2ccc(SC(F)(F)F)cc2)c1 (configuration not stated) | inactive: -10.3%
CCc1ccc(OP(C)(=O)N2CCN(c3ccc([N+](=O)[O-])cc3)CC2)cc1 (configuration not stated) | inactive: 11%
CP(=O)(NC(=O)Nc1ccccc1)Oc1ccccc1 (configuration not stated) | inactive: -17%
CCOP(C)(=S)SCC(=O)NC(C)C(=O)O (configuration not stated) | inactive: 9.48%
CCOC(=O)c1ccc(NP(C)(=O)Oc2ccc(OC)cc2)cc1 (configuration not stated) | inactive: -5.55%
O=[N+]([O-])c1cc([N+](=O)[O-])c(O)c([N+](=O)[O-])c1.c1ccc(Oc2ccncc2)cc1 | inactive: 21.7%
CP(=O)(Nc1ccccn1)Oc1ccc(Cl)cc1 (configuration not stated) | inactive: -0.209%
CP(=S)(Nn1cnnc1)Oc1ccccc1 (configuration not stated) | inactive: 13.5%
COc1ccccc1OP(C)(=O)Nc1ccccc1 (configuration not stated) | inactive: -7.6%

SMILES | inhibition
CP(=O)(Nc1ccccc1Br)Oc1ccccc1 (configuration not stated) | inactive: 8.28%
CCOC(=O)C(CC)C1=NC(C)(C)Cc2ccccc21.O=[N+]([O-])c1cc([N+](=O)[O-])c(O)c([N+](=O)[O-])c1 (configuration not stated) | inactive: 10.9%
O=[N+]([O-])c1cc([N+](=O)[O-])c(Nc2nnnn2CCO)c([N+](=O)[O-])c1 | inactive: 36.2%
CC1=C2N=C(C=C3N=C(C(C)=C4[N-][C@@](C)([C@@H]5N=C1[C@](C)(CCC(=O)NC[C@@H](C)OP(=O)([O-])O[C@H]1[C@@H](O)[C@@H](n6cnc7cc(C)c(C)cc76)O[C@@H]1CO)[C@H]5CC(N)=O)[C@@](C)(CC(N)=O)[C@@H]4CCC(N)=O)[C@@](C)(CC(N)=O)[C@@H]3CCC(N)=O)C(C)(C)[C@@H]2CCC(N)=O.[C-]#N.[Co+3] | inactive: 38.2%
COc1ccccc1OP(C)(=O)Nc1c(C)cccc1C (configuration not stated) | inactive: -13.6%
CN1CCCCC1COC(=O)C1(O)c2ccccc2CCc2ccccc21 (configuration not stated) | inactive: 20.6%
CP(=O)(Nc1ccc(SC(F)(F)F)cc1)Oc1ccccc1 (configuration not stated) | inactive: -9.31%
CCCOc1ccc(NP(C)(=O)Oc2ccc(Cl)cc2)cc1 (configuration not stated) | inactive: 11%
O=[N+]([O-])c1cc([N+](=O)[O-])c(-n2nnc3ccccc32)c([N+](=O)[O-])c1 | inactive: 1.32%
O=[N+]([O-])c1cc([N+](=O)[O-])c(-c2cnn(-c3ccccc3)c2)c([N+](=O)[O-])c1 | inactive: -69.4%
Cc1nc2ccc3ccccc3c2s1.O=[N+]([O-])c1cc([N+](=O)[O-])c(O)c([N+](=O)[O-])c1 | inactive: 18%
COc1ccccc1OP(C)(=O)Nc1cccc(Br)c1 (configuration not stated) | inactive: -2.34%
Cc1cc(C)cc(OP(C)(=O)Nc2ccc(C)cc2C)c1 (configuration not stated) | inactive: -12.1%
CCOC(=O)c1ccc(NP(C)(=O)Oc2cc(C)cc(C)c2)cc1 (configuration not stated) | inactive: -1.87%
CP(=O)(Nc1cccc(Br)c1)Oc1ccccc1 (configuration not stated) | inactive: 10.7%
Cc1cc(C)cc(OP(C)(=O)Nc2ccccn2)c1 (configuration not stated) | inactive: 1.72%
Cc1ccc(C)c(NP(C)(=O)Oc2ccccc2)c1 (configuration not stated) | inactive: 2.7%
O=C(O)c1cccc(Nc2c([N+](=O)[O-])cc([N+](=O)[O-])cc2[N+](=O)[O-])c1 | inactive: 37.9%
CC1=NCCc2c1[nH]c1ccccc21.O=[N+]([O-])c1cc([N+](=O)[O-])c(O)c([N+](=O)[O-])c1 | inactive: 19.6%
COc1ccc(OP(C)(=O)Nc2ccc(SC(F)(F)F)cc2)cc1 (configuration not stated) | inactive: -8.36%
CCOC(=O)c1ccc(NP(C)(=O)Oc2ccc(F)cc2)cc1 (configuration not stated) | inactive: -4.43%
CCN(CC)CCCOC(=O)C(O)(c1ccccc1)C1CCCCC1 (configuration not stated) | inactive: 12.5%

SMILES | inhibition
CCCCCOc1ccc(NP(C)(=O)Oc2ccc(Cl)cc2Cl)cc1 (configuration not stated) | inactive: 2.07%
O=[N+]([O-])c1cc([N+](=O)[O-])c(OC2CCCCC2O)c([N+](=O)[O-])c1 (configuration not stated) | inactive: -6.9%
CP(=O)(Nc1ccccc1)Oc1ccc(F)cc1 (configuration not stated) | inactive: -9.24%
CC(C)c1ccc(OP(C)(=O)Nc2ccc(SC(F)(F)F)cc2)cc1 (configuration not stated) | inactive: -11.4%
CP(=O)(Nc1ccccc1F)Oc1ccccc1 (configuration not stated) | inactive: 26.5%
O=C(OCCN1CCN(CCOCc2ccccc2)CC1)C(O)(c1ccccc1)c1ccccc1 | inactive: -12.9%
O=C(OC1CN2CCC1CC2)c1ccc([N+](=O)[O-])cc1 (configuration not stated) | inactive: -29.1%
COc1ccc2c(c1O)-c1c(O)c(OC)cc3c1[C@H](C2)[N+](C)(C)CC3.O=[N+]([O-])c1cc([N+](=O)[O-])c([O-])c([N+](=O)[O-])c1[O-] | inactive: -83.5%
CP(=O)(Nc1ccc(SC(F)(F)F)cc1)Oc1ccc(F)cc1 (configuration not stated) | inactive: 3.26%
CCOP(C)(=S)SCC(=O)NC(C)(CC)C(=O)O (configuration not stated) | inactive: 9.94%
CP(=O)(Nc1ccc2c(c1)OCCO2)Oc1ccccc1 (configuration not stated) | inactive: 15.4%
Cc1ccccc1NP(C)(=O)Nc1ccccc1C | inactive: 8.67%
COc1ccc(OP(C)(=O)Nc2cccc(Br)c2)cc1 (configuration not stated) | inactive: 0.374%
COc1ccc(NP(C)(=O)Oc2ccccc2OC)cc1 (configuration not stated) | inactive: -4.29%
CN(C)CCOC(=O)C(O)(c1ccccc1)C1CCCCC1 (configuration not stated) | inactive: 4.97%
O=[N+]([O-])c1cc([N+](=O)[O-])c(NCC2CCS(=O)(=O)C2)c([N+](=O)[O-])c1 (configuration not stated) | inactive: -9.27%
Nc1ccc2c(ccc3cccnc32)n1.O=[N+]([O-])c1cc([N+](=O)[O-])c(O)c([N+](=O)[O-])c1 | inactive: 24.5%
CP(=O)(OC12CC3CC(CC(C3)C1)C2)OC12CC3CC(CC(C3)C1)C2 | inactive: 11.9%
CCOC(=O)c1ccc(NP(C)(=O)Oc2ccc(Cl)cc2)cc1 (configuration not stated) | inactive: 6.5%
COc1ccc(OP(C)(=O)Nc2ccc(Br)cc2)cc1 (configuration not stated) | inactive: 6.67%
CCN(CC)CC(O)COC(=O)C(O)(c1ccccc1)C1CCCCC1 (configuration not stated) | inactive: 10%
CCc1ccc(OP(C)(=O)Nc2cccnc2)cc1 (configuration not stated) | inactive: 4.86%

SMILES | inhibition
CP(=O)(Oc1ccccc1)N1CCOC1=O (configuration not stated) | inactive: -0.0702%
O=C(OCCCN1CCCC1)C(O)(c1ccccc1)C1CCCCC1 (configuration not stated) | inactive: 20.7%
COc1ccccc1OP(C)(=O)Nc1c(C)n(C)n(-c2ccccc2)c1=O (configuration not stated) | inactive: 6.94%
CP(=O)(Nc1ccc(Cl)cc1)Oc1ccc(F)cc1 (configuration not stated) | inactive: -12%
CC(C)(C)c1ccc(OP(C)(=O)O)cc1 | inactive: -20.9%
COc1ccccc1OP(C)(=O)Nc1ccccc1Br (configuration not stated) | inactive: 2.66%
CN(C)C(=O)c1c([N+](=O)[O-])cc([N+](=O)[O-])cc1[N+](=O)[O-] | inactive: -33.9%
COc1ccccc1OP(C)(=O)Nc1ccc(Br)cc1 (configuration not stated) | inactive: -0.587%
CN(C)CCOC(=O)C(O)(c1ccccc1)C1CCCC1 (configuration not stated) | inactive: 2.47%
COc1ccc(OP(C)(=O)Nc2ccccn2)cc1 (configuration not stated) | inactive: -19.2%
O=[N+]([O-])c1cc([N+](=O)[O-])c(Nc2ccccn2)c([N+](=O)[O-])c1 | inactive: 5.77%
Cc1c(NP(C)(=O)Oc2ccc(C(C)C)cc2)c(=O)n(-c2ccccc2)n1C (configuration not stated) | inactive: 2.72%
CCc1ccc(OP(C)(=O)O)cc1 | inactive: -0.782%
COc1ccccc1OP(C)(=O)Nc1ccc(C)cc1C (configuration not stated) | inactive: -4.57%
CP(=O)(Nc1ccccn1)Oc1ccccc1 (configuration not stated) | inactive: 12.6%
Cc1cc(C)cc(OP(C)(=O)Nc2cccc(C(F)(F)F)c2)c1 (configuration not stated) | inactive: -1.82%
COc1ccc(OP(C)(=O)Nc2ccccc2Br)cc1 (configuration not stated) | inactive: -0.38%
COc1ccccc1OP(C)(=O)Nc1ccc(C)c(C)c1 (configuration not stated) | inactive: 24%
Cc1nc2ccc3ccccc3c2o1.O=[N+]([O-])c1cc([N+](=O)[O-])c(O)c([N+](=O)[O-])c1 | inactive: -0.701%
CP(=O)(OCCOc1ccccc1)OCCOc1ccccc1 | inactive: 29.1%
CP(=O)(Nc1ccc(Cl)cc1Cl)Oc1ccccc1 (configuration not stated) | inactive: 0.158%
